Reference: US11660306B2, “Treatment of Rett syndrome” (Cold Spring Harbor Laboratory, priority 2014, dated 2023)

Sequences of proteins named here, by UniProt entry; tags and fusion partners are left off.
UniProt P18031, whole entry: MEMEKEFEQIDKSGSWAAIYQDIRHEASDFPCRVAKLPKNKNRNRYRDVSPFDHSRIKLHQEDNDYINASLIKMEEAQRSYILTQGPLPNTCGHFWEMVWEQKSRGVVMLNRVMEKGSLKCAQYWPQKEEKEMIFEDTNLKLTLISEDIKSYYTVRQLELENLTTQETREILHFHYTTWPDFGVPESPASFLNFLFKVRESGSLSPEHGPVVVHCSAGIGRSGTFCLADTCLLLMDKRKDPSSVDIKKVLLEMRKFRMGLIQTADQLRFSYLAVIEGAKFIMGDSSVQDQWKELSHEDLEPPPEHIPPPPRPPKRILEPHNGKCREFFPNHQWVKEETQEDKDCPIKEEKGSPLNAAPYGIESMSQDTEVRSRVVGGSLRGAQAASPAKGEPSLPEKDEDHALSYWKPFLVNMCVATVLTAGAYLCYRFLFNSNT

Key:
Assay type in all cases: biochemical
[1] = target: PTP1B405 (Homo sapiens, UniProt P18031); assay: Triterpene inhibition of PTP1B405 (Table 2); conditions: read-out: Ki (μM), PTP1B405
[2] = target: PTP1B321 (Homo sapiens, UniProt P18031); assay: Triterpene inhibition of PTP1B321 (Table 2); conditions: read-out: Ki (μM), PTP1B321
[3] = system: PTP1B; assay: Reversibility of PTP1B inhibition by triterpenes (Table 2)

For `CC1(C)OC2CC(=O)OCC23C1CC(=O)C1(C)C3CCC2(C)C(c3ccoc3)OC(=O)C3OC321` (stereo not drawn), the Ki [1] was 6 µM, the Ki [2] was 9 µM and the Reversibility [3] was “Reversible”.
